Test results from patent publication US20120046251A1, “INHIBITORS OF SOLUBLE EPOXIDE HYDROLASE TO INHIBIT OR PREVENT NIACIN-INDUCED FLUSHING” (The Regents of the University of California, priority 2009, published 2012).

Test system: C57BL/6 mice
Test: Niacin-induced flushing: laser Doppler ear blood flow in anesthetized mice
Assay type: in vivo, mouse
Conditions: i.p. 30 minutes before niacin 30 mg/kg; TPAU 0.01-1 mg/kg, others 4 mg/kg

Compound: O=C(NC12CC3CC(CC(C3)C1)C2)N[C@H]1CC[C@H](Oc2ccc(C(=O)O)cc2)CC1 (relative stereo) [t-AUCB, trans-4-[4-(3-adamantan-1-ylureido)cyclohexyloxy]benzoic acid]
- peak ear tissue perfusion after niacin (composite, FIG. 9): significantly reduced peak ear tissue perfusion
